Antibody variant affinities, Ab-91 heavy chain, assay 2

The measurements come from Engelhart et al. 2022 (doi:10.1038/s41597-022-01779-4) through the FLAb antibody collection.

Antigen: PDVDLGDISGINAS, a 14-residue peptide of the SARS-CoV-2 spike HR2 region.

Parent scFv Ab-91: VL joined to VH by three GGGGS repeats. Changes lie in the heavy chain CDRs alone.
VL: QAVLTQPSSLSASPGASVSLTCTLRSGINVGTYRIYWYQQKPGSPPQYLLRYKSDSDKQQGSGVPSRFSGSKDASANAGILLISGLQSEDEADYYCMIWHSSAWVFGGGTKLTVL
VH: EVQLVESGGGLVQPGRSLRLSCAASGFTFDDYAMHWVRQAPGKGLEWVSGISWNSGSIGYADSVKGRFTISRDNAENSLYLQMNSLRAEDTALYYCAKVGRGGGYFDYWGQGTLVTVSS

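The starting antibody came from a phage panning campaign against this peptide. Variants in AAYL51 differ from the parent at up to three CDR positions; double and triple changes were sampled at random. Affinity was read by AlphaSeq, a pooled yeast mating assay with surface-displayed partners. Binding brings cells together so that they mate, and sequencing counts the barcode pairs among the diploids. The ratio of observed to expected reads was calibrated, replicate by replicate, on BCL2-family standards whose Kd was known from biolayer interferometry. There are three technical replicates.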

Each variant is given by its three heavy chain CDRs, as the data file delimits them; those of the parent are GFTFDDYAMH, GISWNSGSIGYADSVK, VGRGGGYFDY.
Affinities are written as log10 Kd with Kd in nM; a lower number is a better binder.
An entry "nd" has no value in the source: the pair was not observed among the diploids in that replicate. This suggests poor binding but is not conclusive.

CDR-H1 | CDR-H2 | CDR-H3 | log10 Kd (nM) by replicate | empty controls
GFTFDDYAMH | GISWNSPSPGYADSWK | VGRGGGYFDY | nd 5.15 4.04 | 0 of 9
GFTFDDYTMH | GISWPSGSIGYADSVK | VNRGGGYFDY | 3.84 3.89 5.32 | 1 of 9 (4.84)
GFTFVDNAMH | GISWNSGWIGYADSVK | VGRGGGYFDY | nd nd nd | 0 of 9
GETFDDYWMH | GISWNSMSIGYADSVK | VGRGGGYFDY | nd nd nd | 3 of 9 (4.30)
GFTFDDYCMH | GISWNSGSIGMADSVK | VGRGGGYFDY | nd nd 4.76 | 2 of 9 (4.53)
GHTFDDYYMH | GISWNSGSIGYADSVV | VGRGGGYFDY | 5.51 nd nd | 2 of 9 (3.90)
GFTFDDYAMH | GIQWESGSCGYADSVK | VGRGGGYFDY | nd nd nd | 0 of 9
GWTFDFYAMH | GISWNSGSIGYADSVK | VGRGGGYFCY | nd nd nd | 0 of 9
GFTIDDYAMH | NISWNSGSIGFADSVK | VGRGGGYFDY | nd nd 4.22 | 0 of 9
GFTGDSYAMD | GISWNSGSIGYADSVK | VGRGGGYFDY | nd nd nd | 2 of 9 (5.23)
VFTLDDYAMH | GDSWNSGSIGYADSVK | VGRGGGYFDY | nd nd nd | 0 of 9
GFTFADYAMH | GISWNSGSIGYSDSVK | VGRGGGYFDE | 0.60 0.85 0.25 | 0 of 9
GFTFDDYAMH | GISWGMGSIGYADSVK | VGRGGGYFMY | nd nd nd | 0 of 9
GFTFIDYAMH | GISWNSGSIGYADSVK | RGRGGGCFDY | 4.50 nd 3.58 | 1 of 9 (3.40)
GFTFDDYAMQ | GISWESGSWGYADSVK | VGRGGGYFDY | nd nd nd | 0 of 9
GFTFDDHAMH | GISWNSGSEGYADSVK | VGRHGGYFDY | 4.34 5.29 4.48 | 6 of 9 (5.17)
GFTFDDYAMH | GISWNSGSIGHADSVK | PGRGGGYFDY | 4.35 nd 4.58 | 1 of 9 (3.55)
GFTFDDGAMH | GISWNSGSIGYADSVK | VGRPKGYFDY | nd nd nd | 0 of 9
GFTFDDYAMH | GISWNSGSIGYADSFK | MGRGQGYFDY | 3.12 nd nd | 0 of 9
GFTFDDYAMH | GISWNSGSIAYADSPK | VFRGGGYFDY | nd nd nd | 1 of 9 (3.85)
GFTFDDYVMH | GISWNSGSIGRADSVK | VGRGGGYFMY | nd nd nd | 0 of 9
GFTFNDYAMH | GISWNSGVIGYADSVK | VGPGGGYFDY | 4.00 3.67 3.76 | 5 of 9 (4.53)
GFTFDDYAMY | GISWNSGSIGYADSVK | VYRGRGYFDY | nd 4.26 nd | 4 of 9 (4.57)
GFTFDDYAMH | WISWGSGSIGDADSVK | VGRGGGYFDY | 4.01 5.99 nd | 0 of 9
GFNFDTYAMH | DISWNSGSIGYADSVK | VGRGGGYFDY | nd nd nd | 2 of 9 (4.00)
GFTFDDYAMH | GGSWNSGSIGYADSVK | VGRGGYYFDQ | nd nd nd | 0 of 9
GFTFDDYAMH | GISWNVGSHGYADSVK | VGRGGGYFDW | nd nd nd | 0 of 9
GFTFDDYAMH | NISWNSGDIGYLDSVK | VGRGGGYFDY | 5.89 7.00 4.58 | 4 of 9 (4.82)
GFPFDDYAMH | GISWNSGSIGYAISVK | VGRGGGYMDY | 2.62 2.61 3.89 | 4 of 9 (4.11)
GFTFNDYAMN | GISWNSGSIGYADSVK | VGRGGCYFDY | nd nd nd | 2 of 9 (3.38)
GFTFADYAYH | GISWNSGSIGYADSVK | VGRFGGYFDY | 5.57 nd nd | 0 of 9
GFTLDDAAMH | GISWNSGSIMYADSVK | VGRGGGYFDY | nd nd nd | 0 of 9
SFTFDDYAMH | GISWNSGSIGYADSVK | VGRGGGYFDY | 1.62 1.68 1.12 | 1 of 9 (4.09)
GFTFDDYAMH | GISWNSGHIGYADSVC | VGRGGGYFDY | 2.79 2.58 2.56 | 3 of 9 (4.47)
GFTFDDYAMH | GISWNSGSIGYGDSVK | VGRGSGYFDY | 4.12 5.72 nd | 7 of 9 (5.18)
GFEFDDYAMH | GISWNSGSIGYADSVK | VGRGGGCFNY | 1.82 2.13 1.57 | 2 of 9 (4.83)
GFTFDDYAMH | GISTNSGSIGYADSVK | VGQGGGYFNY | 3.06 2.66 2.39 | 0 of 9
GFTFDDYAMV | GISWNSGSIGYADSVK | VGRGGGKFDA | nd nd nd | 0 of 9
GFTYDDYAMH | GISWNSGSIGYADSVK | VGYGGGYFDY | 2.19 nd nd | 0 of 9
GFTCDDYAMH | GISWNSGSIGYAKSVK | VGRGGGYFVY | 4.41 4.80 4.46 | 5 of 9 (4.92)
GFTFDDYAMH | HMSWNSGSIGYADLVK | VGRGGGYFDY | nd nd nd | 0 of 9
GFTFDDYAMH | GISWNSGDIGYADSVK | VNRGGGQFDY | nd 3.26 nd | 0 of 9

The 5 strongest on average among those seen in every replicate, once more:

CDR-H1 | CDR-H2 | CDR-H3 | log10 Kd (nM) by replicate | empty controls
GFTFADYAMH | GISWNSGSIGYSDSVK | VGRGGGYFDE | 0.60 0.85 0.25 | 0 of 9
SFTFDDYAMH | GISWNSGSIGYADSVK | VGRGGGYFDY | 1.62 1.68 1.12 | 1 of 9 (4.09)
GFEFDDYAMH | GISWNSGSIGYADSVK | VGRGGGCFNY | 1.82 2.13 1.57 | 2 of 9 (4.83)
GFTFDDYAMH | GISWNSGHIGYADSVC | VGRGGGYFDY | 2.79 2.58 2.56 | 3 of 9 (4.47)
GFTFDDYAMH | GISTNSGSIGYADSVK | VGQGGGYFNY | 3.06 2.66 2.39 | 0 of 9

Parent in this assay: reference entry 1.86, copy in this library 0.88.
Nonspecific signal, from three strains lacking the peptide, appeared in 21% of pairings of library AAYL51, centred on 4.54 (5% of these signals below 3.26); values are not corrected for it. The control count says in how many pairings with the empty strains this scFv gave a signal, with their mean in brackets.